Test results reported in patent US11117869B2, “Compounds, compositions and methods for treatment of myopia” (Aerie Pharmaceuticals, Inc., priority 2019, dated 2021).

Assay: Topical eye drop composition (Table 3): allergic symptoms, dry eye, hyperemia, irritation

Row | Molecule | dry eye syndrome (in vivo) | allergic symptoms (drop thrice per day) | dry eye syndrome (drop thrice per day)
1 | CN1C2CCC1CC(NC(=O)[C@H](CN)c1ccc(CO)cc1)C2 (stereo partly drawn) [Compound E20S, (S)-3-amino-2-(4-(hydroxymethyl)phenyl)-N-((1R,3-endo,5S)-8-methyl-8-azabicyclo[3.2.]octan-3-yl)propanamide ditosylate] | relieves |  | 
2 | 8-methyl-8-azabicyclo[3.2.1]octan-3-yl 2-(4-fluorophenyl)-3-hydroxypropanoate toluensulfonate |  | substantially decreases | relieves
